Experimental data: patent US10894784B2, “Heteroarylbenzimidazole compounds” (BAYER PHARMA AKTIENGESELLSCHAFT, priority 2015, dated 2021)

Sequences of proteins named here, by UniProt entry; tags and fusion partners are left off.
UniProt Q9UHD2, whole entry: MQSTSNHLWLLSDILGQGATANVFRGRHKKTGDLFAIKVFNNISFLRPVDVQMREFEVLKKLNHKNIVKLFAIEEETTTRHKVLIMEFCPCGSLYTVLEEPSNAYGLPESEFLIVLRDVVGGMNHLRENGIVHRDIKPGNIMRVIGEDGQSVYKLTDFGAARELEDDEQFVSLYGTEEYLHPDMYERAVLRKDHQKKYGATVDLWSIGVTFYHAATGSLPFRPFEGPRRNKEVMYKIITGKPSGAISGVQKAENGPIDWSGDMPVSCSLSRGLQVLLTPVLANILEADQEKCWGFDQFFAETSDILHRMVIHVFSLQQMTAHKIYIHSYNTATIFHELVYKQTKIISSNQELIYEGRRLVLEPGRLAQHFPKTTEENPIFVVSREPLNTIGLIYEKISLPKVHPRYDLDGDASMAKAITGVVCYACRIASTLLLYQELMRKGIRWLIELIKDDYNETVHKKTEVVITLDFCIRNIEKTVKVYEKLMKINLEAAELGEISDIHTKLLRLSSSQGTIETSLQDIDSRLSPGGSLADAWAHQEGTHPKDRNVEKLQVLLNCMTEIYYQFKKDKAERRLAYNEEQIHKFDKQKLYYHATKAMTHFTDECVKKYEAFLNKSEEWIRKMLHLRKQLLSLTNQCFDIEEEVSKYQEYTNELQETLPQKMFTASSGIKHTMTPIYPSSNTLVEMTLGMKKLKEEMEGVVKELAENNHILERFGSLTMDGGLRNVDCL

Biological target: TBK1 (Homo sapiens (Human), UniProt Q9UHD2)
Assay: TBK1 low ATP kinase assay (in vitro assay 1)
Format: biochemical
Settings: read-out: TBK1 low ATP kinase assay IC50

With `CN(C)c1nccnc1-c1ccc2nc(Nc3cc(CN4CCN(C(=O)OC(C)(C)C)CC4)ccn3)[nH]c2c1` the IC50 was 1.53 µM.
